Test results published in paper PMC3685407 (Neuropharmacology, 2013).

The chains behind the UniProt entries cited, without tags or fusion partners. Residues count along the entry.
UniProt P36544, 23-502: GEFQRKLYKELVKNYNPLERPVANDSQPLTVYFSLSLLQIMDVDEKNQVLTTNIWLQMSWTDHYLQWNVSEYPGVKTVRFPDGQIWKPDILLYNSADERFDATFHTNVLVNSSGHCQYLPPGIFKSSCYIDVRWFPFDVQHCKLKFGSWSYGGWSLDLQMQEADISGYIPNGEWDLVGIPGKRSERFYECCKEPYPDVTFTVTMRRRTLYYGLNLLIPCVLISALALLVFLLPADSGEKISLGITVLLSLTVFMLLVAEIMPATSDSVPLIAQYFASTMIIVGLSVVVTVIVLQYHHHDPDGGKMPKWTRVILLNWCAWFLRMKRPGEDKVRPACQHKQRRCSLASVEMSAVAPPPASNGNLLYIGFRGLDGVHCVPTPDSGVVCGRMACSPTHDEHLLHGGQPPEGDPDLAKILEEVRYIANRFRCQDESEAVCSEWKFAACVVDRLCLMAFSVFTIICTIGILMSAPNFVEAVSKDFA

Molecular target: human α7 nAChRs (Homo sapiens, UniProt P36544)
Assay: biochemical
Assay type: binding

Ki: 0.29 ± 0.034 µM
SMILES: c1cnc2cc3c(cc2n1)[C@@H]1CNC[C@H]3C1 [Varenicline]
